Measurements published in patent publication US6509161B1, “Green fluorescent protein” (Gentronix Limited, priority 2000, dated 2003).

What was measured:
[1] = system: FF18984; details: 0.005% v/v MMS; GM FF18984; exposed versus unexposed culture brightness
[2] = system: FY73; details: 0.005% v/v MMS; GM FY73; exposed versus unexposed culture brightness
[3] = system: YJL047c; details: 0.005% v/v MMS; GM YJL047c; exposed versus unexposed culture brightness

`COS(C)(=O)=O` [MMS, methyl methanesulfonate] was tested, and the “induction ratio, as measured by fluorescence polarisation” value (shortened to “induction ratio, as measured”) [1] was 5.40, the “induction ratio, as measured” value [2] was 1.94 and the “induction ratio, as measured” value [3] was 2.39.
